Assay [1] deals with T1, IL-7R (Homo sapiens, UniProt P16871+P31785).
T1 construct: human primary immune cells, hPBMCs, collected from individual donors; host or cells: human primary PBMCs from individual donors
Put plainly: TF1-7Rα pSTAT5 assay. In kind it is cell-based. As to conditions: TF-1-7Rα cells, STAT5 phosphorylation; hIL-7 comparator.

The chains behind the UniProt entries cited, without tags or fusion partners. Residues count along the entry.
UniProt P16871, 21-459: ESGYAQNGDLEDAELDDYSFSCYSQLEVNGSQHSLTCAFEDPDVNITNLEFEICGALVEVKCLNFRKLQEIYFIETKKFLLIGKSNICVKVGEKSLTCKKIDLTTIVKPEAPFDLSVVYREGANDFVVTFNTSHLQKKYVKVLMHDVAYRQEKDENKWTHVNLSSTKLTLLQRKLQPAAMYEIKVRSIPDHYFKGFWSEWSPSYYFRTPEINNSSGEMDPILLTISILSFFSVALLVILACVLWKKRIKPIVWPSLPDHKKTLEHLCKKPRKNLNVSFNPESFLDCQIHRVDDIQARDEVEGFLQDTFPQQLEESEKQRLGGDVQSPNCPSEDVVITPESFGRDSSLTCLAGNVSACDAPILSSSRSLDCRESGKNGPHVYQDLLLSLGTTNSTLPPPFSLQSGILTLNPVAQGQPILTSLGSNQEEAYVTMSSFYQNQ
UniProt P31785, 23-369: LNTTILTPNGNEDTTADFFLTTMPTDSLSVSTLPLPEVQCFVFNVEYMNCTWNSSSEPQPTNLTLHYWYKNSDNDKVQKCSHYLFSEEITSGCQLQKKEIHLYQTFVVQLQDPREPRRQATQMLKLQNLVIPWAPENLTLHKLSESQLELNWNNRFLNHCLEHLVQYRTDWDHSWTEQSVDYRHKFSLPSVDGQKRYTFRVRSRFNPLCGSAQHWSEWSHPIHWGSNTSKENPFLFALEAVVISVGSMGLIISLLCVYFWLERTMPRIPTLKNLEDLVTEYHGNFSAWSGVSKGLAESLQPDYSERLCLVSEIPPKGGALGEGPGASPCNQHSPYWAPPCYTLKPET

Assay [2] has as its target T1, IL-7R. In words: pSTAT5 assay in resting PBMCs. The class given is cell-based.

Turning to “hIL-7: human interleukin-7, the natural cytokine, comparator in the functional assays”, the half-maximal effective concentration (EC50) (commonly the concentration at which the effect is half-maximal) in assay [1] was about 0.2 nM; in assay [2], about 7 µM.
